## Apparent affinities of Ab-14 variants for a coronavirus HR2 peptide

The target is the same throughout: PDVDLGDISGINAS, from the HR2 region of SARS-CoV-2 spike.

Ab-14 is the parent antibody, in scFv form: VH, then the linker GGGGSGGGGSGGGGS, then VL. The light chain is unchanged in all variants.
VH: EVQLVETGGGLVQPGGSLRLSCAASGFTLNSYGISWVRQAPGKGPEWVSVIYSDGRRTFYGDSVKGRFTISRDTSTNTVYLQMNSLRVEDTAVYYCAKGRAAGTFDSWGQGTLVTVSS
VL: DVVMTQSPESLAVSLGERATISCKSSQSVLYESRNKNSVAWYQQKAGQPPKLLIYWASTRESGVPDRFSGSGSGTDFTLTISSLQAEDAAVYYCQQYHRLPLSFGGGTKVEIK

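The parent was found by panning a naive human phage display library on the peptide. Designed CDR sequences, proposed from the first random library and measured here. Group labels follow the data file (Ctrl: baseline library sampled from a position-specific scoring matrix, with some repeated check sequences; Rand: our label for a block that the file lists under HC and that is probably the random mutants of the ten best first-round binders; En: ensemble of fine-tuned language models; GP: Gaussian process model; GPLM: also part of the Gaussian process libraries; HC: hill climbing; Gen: genetic algorithm; Gibbs: Gibbs sampling; a sequence that several methods proposed may carry one label only). AlphaSeq pools MATa yeast showing the antibodies with MATalpha yeast showing the peptide. Binding brings cells together so that they mate, and sequencing counts the barcode pairs among the diploids. Read counts were normalised to the haploid input and turned into Kd by a linear fit to BCL2-family pairs of known affinity, for each replicate. The assay was run in six technical replicates.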

The parent's heavy chain CDRs are GFTLNSYGIS, VIYSDGRRTFYGDSVK, GRAAGTFDS; each variant's own CDRs replace them letter for letter.
The read-out is the apparent dissociation constant on a log10 scale (nM): the lower, the stronger.
Averages over replicates are reported, and they cover detected replicates only.
"no signal" marks a missing value. The strain was present, yet no cells mated with the target were sequenced in any replicate, which points to weak or no binding.
The authors averaged sequences with at least three values out of six and counted those with two or fewer as poor binders.

"mean, log10 nM",detected,control signals,CDR-H1,CDR-H2,CDR-H3,group
no signal,0 of 6,0 of 18,GFDLEEYGIS,VIYADGKRTAYKNTVK,GSFMIDFKV,En_Gibbs
0.05,6 of 6,0 of 18,GFSLNNYGIS,VIYSDGRRTFYADSVK,GRTAGTFDS,GPLM_Gen
-1.12,4 of 6,0 of 18,GFDLNEYGIS,VIYADGSRTAYADSVK,GNVAGTFDA,En_Gen
0.67,5 of 6,0 of 18,GFDLNEYGIS,VIYADGRRTQYIDSVK,GEIAGTFDV,En_HC
-0.48,6 of 6,0 of 18,GFDLNEYGIS,VIYADGKRTVYADSVK,GEVAGTFDV,En_Gen
no signal,0 of 6,0 of 18,GFTLNSYGIS,VIYSDGLRTFYGDSVK,GRAAVTFDS,Ctrl
0.73,6 of 6,0 of 18,GFELNEYGIS,VIYSDGRRTFYGDSVK,GSAAGTFDS,GP_Gen
0.26,2 of 6,0 of 18,GFNLNEYGIS,VIYADGRRTFYSDSVK,GEAAGTFDM,En_HC
1.56,6 of 6,2 of 18,GFTLESYGIS,VIYSDGRRTFYADQVK,GRAAGTFDS,GPLM_Gen
no signal,0 of 6,0 of 18,GFTLNSYGIS,VIYSDGRRTFYGDSVK,NRAAGTFDW,Ctrl
-0.23,6 of 6,0 of 18,GFNLDEYGIS,VIYADGRRTFYVDSVK,GEVAGTFDF,En_HC
0.35,6 of 6,0 of 18,GFDLNSYGIS,VIYSDGRRTFYGDSVK,GRAAGHFVS,GPLM_HC
-0.38,6 of 6,1 of 18,GFNLNEYGIS,VIYADGRRTFYADSVK,GEVAGTFDV,En_HC
no signal,0 of 6,0 of 18,GFQLDEYGIS,VIYADGERTHYSNDVK,GTIGGTFQQ,En_Gibbs
no signal,0 of 6,0 of 18,GKDLQEYGIS,VIYADGKREQYAGSVK,GGLTGQFTV,En_Gibbs
2.07,1 of 6,0 of 18,GSILDEYGIS,VIYADGVRTAYIEDVK,GQSGVSVVN,En_Gibbs
0.34,6 of 6,0 of 18,GFQLNEYGIS,VIYSDGRRTFYSDSVK,GQAAGTFDT,GP_Gibbs
no signal,0 of 6,0 of 18,GRDLDEYGIS,VIYADGTRKMYAVSFK,GEHGGTFLM,En_Gibbs
no signal,0 of 6,0 of 18,GFTLTEYGIQ,VIYSDGQRTFYDNSVK,GKAAGTFDS,Ctrl
-0.25,6 of 6,0 of 18,GFDLDEYGIS,VIYADGVRTAYIDSVK,GNVAGTFDL,En_Gen
-0.30,6 of 6,0 of 18,GFDLNEYGIS,VIYADGSRTFYSDSVK,GNTAGTFDS,En_HC
no signal,0 of 6,0 of 18,GFTLNDYGIS,VIYSDGRRTFYGDGVK,GRANLTFIS,Rand
1.65,5 of 6,0 of 18,GFTLNSYGIS,VIYSDGKRTFYGDSVK,GQTAGTFDM,GP_Gibbs
-0.14,6 of 6,0 of 18,GFDLNEYGIS,VIYADGMRTAYADSVK,GANAGTFDI,En_Gen
-0.34,6 of 6,0 of 18,GFNLDEYGIS,VIYADGKRTAYSDSVK,GEVAGTFDV,En_Gen
0.70,6 of 6,0 of 18,GFDLNSYGIS,VIYSDGRRTFYIDSVK,GRAAGTFDM,GP_HC
no signal,0 of 6,0 of 18,GFTLNSYGIS,VIYSDGRRTFYADSVK,DRAAGTFDD,Ctrl
1.88,3 of 6,0 of 18,GFTLSDYGIS,VIYSDGRRTYYEDSVK,GRPAGTFDS,Ctrl
0.50,6 of 6,0 of 18,GFTLNSYGIS,VIYSDGKRTFYSDSVK,GRQAGTFDT,GPLM_Gibbs
0.10,6 of 6,1 of 18,GFDIEDYGIS,VIYADGKRSAYSNSVK,GLMAGNMGY,En_Gibbs
no signal,0 of 6,0 of 18,GFTLNSYGIS,VIYSDGRRTFYGDSVK,GQAAATFDS,Ctrl
-0.20,6 of 6,0 of 18,GFDLDEYGIS,VIYADGKRTAYADSVK,GENAGTFDQ,En_Gen
-0.49,6 of 6,0 of 18,GFDLEDYGIS,VIYADGQRTFYADSVK,GNVAGTFDS,En_HC
0.80,6 of 6,3 of 18,GFTLNSYGIS,VIYSDGRRTFYSDSVK,GQAAGTFDV,GP_HC
-0.22,6 of 6,0 of 18,GFDLNEYGIS,VIYADGVRTAYVDSVK,GNVAGTFDQ,En_Gen
0.46,6 of 6,0 of 18,GFDLDEYGIS,VIYADGRRTAYADDVK,GENAGTFDT,En_Gen
no signal,0 of 6,0 of 18,GFTLNSYGIS,VIYSDGRRTFYGDSVK,GRHAGDFDS,Ctrl
4.68,1 of 6,0 of 18,GFSLENYGIS,VIYADGMRTAYAPSVK,GENDGYDTT,En_Gibbs
no signal,0 of 6,0 of 18,GQGIEEYGIS,VIYADGQRNAAADEVK,GENAGTFDI,En_Gibbs
-0.51,6 of 6,0 of 18,GFDLNEYGIS,VIYADGMRTAYVDSVK,GGNAGTFDI,En_Gen
0.24,6 of 6,0 of 18,GFELNSYGIS,VIYSDGRRTFYQDSVK,GTAAGTFDS,GP_Gen
0.58,4 of 6,0 of 18,GFTLNSYGIS,VIYADGRRTFYKDSVK,GRAAGTFDS,Ctrl
no signal,0 of 6,0 of 18,CFKPNSYGIS,VIYSDGRRTFYGDNVV,GRAAGTFDS,Ctrl
no signal,0 of 6,0 of 18,GFTLNSYGFS,VIYSDGRRTMYGDSVK,GRAAFTFDS,Ctrl
-0.37,6 of 6,0 of 18,GFDLDEYGIS,VIYADGMRTAYADDVK,GENAGTFDV,En_Gen
1.93,6 of 6,0 of 18,GFTLNSYGIS,VIYSDGRRTFYIDDVK,GQAAGTFDK,GP_Gibbs
0.68,6 of 6,0 of 18,GFTLDSYGIS,VIYSDGRRTFYHDSVK,GRLAGTFDS,GP_HC
no signal,0 of 6,0 of 18,GFDLDQYGIS,VIYADGIRSYYADSVK,GHEGGILYV,En_Gibbs
0.58,6 of 6,0 of 18,GFSLNSYGIS,VIYSDGRRTFYHDSVK,GRTAGTFDT,GPLM_Gen
1.49,6 of 6,0 of 18,GFTLNNYGIS,VIYSDGRRTFYDDSVK,GQAAGTFDS,GP_HC
0.26,6 of 6,1 of 18,GFTLNEYGIS,VIYSDGRRTFYGDSVK,GKTAGTFDS,GPLM_Gen
-0.18,6 of 6,0 of 18,GFDLNEYGIS,VIYADGMRTAYSDDVK,GENAGTFDM,En_Gen
-0.03,6 of 6,0 of 18,GFTLNSYGIS,VIYADGRRTFYGDSVK,GKAAGTFDT,GPLM_Gen
-0.75,6 of 6,0 of 18,GFDLEDYGIS,VIYADGRRTAYIDSVK,GEIAGTFDV,En_HC
no signal,0 of 6,0 of 18,SFELNSYGIS,VIYSDGRRTFYGDSVK,GKTAGTFDS,GP_Gen
1.47,6 of 6,1 of 18,GFFLNDYGIS,VIYSDGRRTFYGDSVK,GTEAGTFDS,GP_HC
0.46,6 of 6,0 of 18,GFDLNEYGIS,VIYADGRRTFYSDSVK,GEVGGTFDG,En_HC

Excerpt, the final 4 entries:

{"CDR-H1": "GFDLEDYGIS", "CDR-H2": "VIYADGRRTAYIDSVK", "CDR-H3": "GEIAGTFDV", "group": "En_HC", "mean, log10 nM": "-0.75", "detected": "6 of 6", "control signals": "0 of 18"}
{"CDR-H1": "SFELNSYGIS", "CDR-H2": "VIYSDGRRTFYGDSVK", "CDR-H3": "GKTAGTFDS", "group": "GP_Gen", "mean, log10 nM": "no signal", "detected": "0 of 6", "control signals": "0 of 18"}
{"CDR-H1": "GFFLNDYGIS", "CDR-H2": "VIYSDGRRTFYGDSVK", "CDR-H3": "GTEAGTFDS", "group": "GP_HC", "mean, log10 nM": "1.47", "detected": "6 of 6", "control signals": "1 of 18"}
{"CDR-H1": "GFDLNEYGIS", "CDR-H2": "VIYADGRRTFYSDSVK", "CDR-H3": "GEVGGTFDG", "group": "En_HC", "mean, log10 nM": "0.46", "detected": "6 of 6", "control signals": "0 of 18"}

Of ten entries with the parent sequence, four were seen in most replicates (averages 0.34 to 2.37), three in one and three in none, so single entries are noisy.
Three control strains display no target. For all heavy chain designs, 1% of the pairings with them gave a signal, with a median of 2.08 and one signal in twenty below 0.84, so weak values seen in few replicates may be background. Also given: how often the same scFv was detected with the empty control strains.
A sequence measured in both rounds can read differently, since the two assays cover different ranges.

From the AlphaSeq antibody data of Li et al. 2023 (doi:10.1038/s41467-023-39022-2), copy in the FLAb collection.